Measured values taken from US11535598B2, “Histone deacetylases (HDACs) inhibitors” (ANNJI PHARMACEUTICAL CO., LTD., priority 2017, dated 2022).

Chains of the proteins cited; added tags and fusions are not shown.
UniProt Q13547, whole entry: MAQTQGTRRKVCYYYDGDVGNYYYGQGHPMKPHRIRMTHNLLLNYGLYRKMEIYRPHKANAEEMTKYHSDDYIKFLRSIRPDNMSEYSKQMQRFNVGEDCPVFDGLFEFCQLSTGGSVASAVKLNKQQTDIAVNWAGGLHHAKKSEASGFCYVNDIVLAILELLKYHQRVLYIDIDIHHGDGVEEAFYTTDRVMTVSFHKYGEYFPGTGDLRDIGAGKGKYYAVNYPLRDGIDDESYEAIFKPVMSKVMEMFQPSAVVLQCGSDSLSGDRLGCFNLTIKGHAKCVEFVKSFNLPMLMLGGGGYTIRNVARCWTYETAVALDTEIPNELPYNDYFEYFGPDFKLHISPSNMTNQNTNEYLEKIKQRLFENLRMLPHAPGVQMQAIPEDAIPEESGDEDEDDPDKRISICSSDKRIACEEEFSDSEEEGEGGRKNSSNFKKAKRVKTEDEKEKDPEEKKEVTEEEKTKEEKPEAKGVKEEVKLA

Molecular target: Human HDAC1 (Homo sapiens (Human), UniProt Q13547)
Experiment: HDAC enzymatic assay, HDAC1
Type: biochemical
Settings: 10-dose IC50 mode with a 3-fold serial dilution; read-out: HDAC subtypes IC50 HDAC1
Experimental: The IC50 values for aforementioned compounds against HDACs were determined. HDAC 1 to 11 can be assayed by using acetylated AMC-labeled peptide substrate.
Human HDAC1 GenBank Accession No. NM_004964): Full length with C-terminal GST tag, MW=79.9 kDa, Human HDAC2 (GenBank Accession No. Q92769): Full length with C-terminal His tag, MW=60 kDa. Human HDAC3/NcoR2 (GenBank Accession No. […] for HDAC3, GenBank Accession No. NM_006312 for NcoR2): Complex of human HDAC3, full length with C-terminal His tag, MW=49.7 kDa, and human NCOR2, N-terminal GST tag, MW=39 kDa. Human HDAC6 (GenBank Accession No. BC069243): Full length with N-terminal GST tag, MW=159 kDa. Human HDAC8 (GenBank Accession No. NM018486): Full length, MW=42 kDa, expressed in an E. coli expression system.
Human HDAC1, Human HDAC2, Human HDAC3/NcoR2, Human HDAC6, Human HDAC10, and Human HDAC11 were all expressed by baculovirus expression system in Sf9 cells.
50 μM HDAC substrate. 1% DMSO final. Incubation for 2 hours at 30° C.

## COc1ccccc1CCn1c(=O)c2ccccc2n(Cc2ccc(C(=O)NO)cc2)c1=O [Compound 15, N-hydroxy-4-((3-(2-methoxyphenethyl)-2,4-dioxo-3,4-dihydroquinazolin-1(2H)-yl)methyl)benzamide]
  IC50: 10.4 µM
